Source: paper PMC4697837, “Bay 61-3606 Sensitizes TRAIL-Induced Apoptosis by Downregulating Mcl-1 in Breast Cancer Cells” (PLoS ONE, 2015)
Structures can show the parent of a compound that is named as a salt.

Protein sequences, listed by entry. Tags and fused reporters are not part of them.
UniProt P50750, whole entry: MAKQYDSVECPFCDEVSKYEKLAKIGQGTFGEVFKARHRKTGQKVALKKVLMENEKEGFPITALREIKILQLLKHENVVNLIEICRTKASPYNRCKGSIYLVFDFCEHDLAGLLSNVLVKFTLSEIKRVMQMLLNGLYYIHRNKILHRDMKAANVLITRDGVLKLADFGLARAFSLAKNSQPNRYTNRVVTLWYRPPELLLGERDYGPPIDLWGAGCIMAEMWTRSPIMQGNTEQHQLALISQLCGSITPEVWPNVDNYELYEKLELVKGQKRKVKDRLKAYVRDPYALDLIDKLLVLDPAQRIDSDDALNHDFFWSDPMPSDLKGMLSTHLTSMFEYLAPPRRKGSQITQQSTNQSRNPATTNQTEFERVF

Molecular target: T1, Cyclin-Dependent Kinase (CDK) 9 (Homo sapiens, UniProt P50750)
T1 construct: gene CDK9
Experiment: in vitro radiometric kinase assay (Merck Millipore Kinase Profiling Service)
Assay type: biochemical

IC50: 37 nM
SMILES: COc1ccc(-c2cc3nccn3c(Nc3ncccc3C(N)=O)n2)cc1OC [Bay 61–3606, 2-[7-(3,4-dimethoxyphenyl)-imidazo[1,2-c]pyrimidin-5-ylamino]nicotinamide dihydrochloride]
